# According to ChEMBL document CHEMBL3621085, “Tetrazole regioisomers in the development of nitro group-containing antitubercular agents” (Medchemcomm, 2015):
# Key:
# Salmonella typhimurium [1] = experiment: Mutagenic activity in Salmonella typhimurium TA98 assessed as induction of reverse mutation at 50 uM; conditions: salmonella enterica subsp. enterica serovar typhimurium
# Salmonella typhimurium [2] = experiment: Mutagenic activity in Salmonella typhimurium TA100 assessed as induction of reverse mutation at 50 uM; conditions: salmonella enterica subsp. enterica serovar typhimurium
# [3] = Cytotoxicity against CHOK1 cells assessed as viability after 24 hrs by MTT assay; format: cell-based, Cricetulus griseus; conditions: cho-k1
SMILES,Activity (Salmonella typhimurium [1]),Activity (Salmonella typhimurium [2]),IC50 [3] [µM]
O=[N+]([O-])c1ccc(Cn2nnnc2SCc2cc([N+](=O)[O-])cc([N+](=O)[O-])c2)cc1,Toxic,Toxic,–
O=[N+]([O-])c1ccc(Cn2nnnc2[Se]Cc2cc([N+](=O)[O-])cc([N+](=O)[O-])c2)cc1,–,–,27
O=[N+]([O-])c1ccc(Cn2nnc(SCc3cc([N+](=O)[O-])cc([N+](=O)[O-])c3)n2)cc1,Toxic,Toxic,–
O=[N+]([O-])c1cc(C[Se]c2nnn(Cc3cc([N+](=O)[O-])cc([N+](=O)[O-])c3)n2)cc([N+](=O)[O-])c1,–,–,40
O=[N+]([O-])c1cc(C[Se]c2nnnn2Cc2cc([N+](=O)[O-])cc([N+](=O)[O-])c2)cc([N+](=O)[O-])c1,–,–,6.5
